Measured values from patent US5380761A, “Transdermal compositions” (Chinoin Gyogyszer- ES Vegyeszeti Termekek Gyara RT., priority 1991, dated 1995).

Tests used:
Assay type in all cases: in vivo
MAO-B [1] = assay: MAO-B inhibition in rat brain nucleus free homogenate after s.c. Deprenyl or UG85 plaster; settings: 14C-PEA, Deprenyl 1 mg/kg s.c.
Experimental: (§1) Because of the low dose-demand (5-10 mg/day) of the active ingredient we could not determine the blood-level directly, therefore we determined it partly indirectly by a biochemical method determining the monoamine-oxidase (MAO) inhibiting effect of the active ingredient in the brain and liver tissues, and partly from the quantity of the unabsorbed active ingredient from the plaster by HPLC.
(§2) The aim of these studies was to determine absorption parameters of the transdermal preparations of different composition. As a model, rats and beagle clogs depilated on the required surface were used. The absorption kinetic was followed by determining the quantity of the unabsorbed active ingredient (HPLC). Besides we measured the monoamine oxidase (MAO) inhibiting effect of the absorbed active ingredient in rat brain and liver tissues.
(§3) Test methods: MAO activity of rat brain and liver tissues was determined by the radiometric method of Wurtman and Axelrod (Biochem. Pharmacol. 1963. 12, 1417). The remaining active ingredient content of the plasters removed from the test animals was determined by HPLC. The numerical results were obtained by calibration prepared from different quantities of an ointment.

MAO-B [2] = assay: MAO-B inhibition in rat liver nucleus free homogenate after s.c. Deprenyl or UG85 plaster; settings: 14C-PEA, Deprenyl 1 mg/kg s.c.
Experimental: as §1, §2, §3

MAO-B [3] = assay: MAO-B inhibition in domestic pig brain nucleus free homogenate (14C-PEA substrate); settings: p. os 10 mg, 96 h
MAO-B [4] = assay: Inhibition of platelet MAO-B activity in domestic pigs after p. os and transdermal application; settings: pig, per os 10 mg, 14C-PEA

C#CCN(C)C(C)Cc1ccccc1 (racemic) [Deprenyl, N-methyl-N-(1-phenyl-2-propyl)-2-propynylamine]
inhibition of MAO-B activity (%) as compared to the control (MAO-B [1]; 1 hour): 79.02 ± 1.58%
inhibition of MAO-B activity (%) as compared to the control (MAO-B [1]; 2 hours): 87.09 ± 2.05%
inhibition of MAO-B activity (%) as compared to the control (MAO-B [1]; 4 hours): 86.74 ± 3.00%
inhibition of MAO-B activity (%) as compared to the control (MAO-B [1]; 6 hours): 83.04 ± 1.46%
inhibition of MAO-B activity (%) as compared to the control (MAO-B [1]; 24 hours): 89.36 ± 2.60%
inhibition of MAO-B activity (%) as compared to the control (MAO-B [1]; 48 hours): 73.59 ± 1.77%
inhibition of MAO-B activity (%) as compared to the control (MAO-B [1]; 72 hours): 76.99 ± 3.38%
inhibition of MAO-B activity (%) as compared to the control (MAO-B [1]; 96 hours): 69.19 ± 3.58%
inhibition of MAO-B activity (%) as compared to the control (MAO-B [1]; 7 days): 32.20 ± 5.45%
inhibition of MAO-B activity (%) as compared to the control (MAO-B [1]; 9 days): 13.56 ± 1.97%
inhibition of MAO-B activity (%) as compared to the control (MAO-B [1]; 11 days): 0.63 ± 0.95%
inhibition of MAO-B activity (%) as compared to the control (MAO-B [1]; 14 days): 0%
inhibition of MAO-B activity (%) as compared to the control (MAO-B [1]; time 0'): 0%
inhibition of MAO-B activity (%) as compared to the control (MAO-B [2]; 1 hour): 63.23 ± 11.98%
inhibition of MAO-B activity (%) as compared to the control (MAO-B [2]; 2 hours): 74.94 ± 1.10%
inhibition of MAO-B activity (%) as compared to the control (MAO-B [2]; 4 hours): 57.63 ± 5.23%
inhibition of MAO-B activity (%) as compared to the control (MAO-B [2]; 6 hours): 67.86 ± 9.22%
inhibition of MAO-B activity (%) as compared to the control (MAO-B [2]; 24 hours): 86.04 ± 7.81%
inhibition of MAO-B activity (%) as compared to the control (MAO-B [2]; 48 hours): 64.34 ± 8.11%
inhibition of MAO-B activity (%) as compared to the control (MAO-B [2]; 72 hours): 68.54 ± 5.25%
inhibition of MAO-B activity (%) as compared to the control (MAO-B [2]; 96 hours): 54.75 ± 11.58%
inhibition of MAO-B activity (%) as compared to the control (MAO-B [2]; 7 days): 56.44 ± 7.59%
inhibition of MAO-B activity (%) as compared to the control (MAO-B [2]; 9 days): 44.26 ± 3.45%
inhibition of MAO-B activity (%) as compared to the control (MAO-B [2]; 11 days): 26.27 ± 15.77%
inhibition of MAO-B activity (%) as compared to the control (MAO-B [2]; 14 days): 24.22 ± 3.13%
inhibition of MAO-B activity (%) as compared to the control (MAO-B [2]; time 0'): 0%

C#CCN(C)[C@H](C)Cc1ccccc1 [(-)-Deprenyl]
inhibition of MAO-activity (%) as compared to the control, brain, 14C-PEA (MAO-B [3]): 73.22 ± 8.13%
inhibition of MAO-B activity of the platelets (%) as compared to the control, group mean (MAO-B [4]; time 3 h): 95.15%
inhibition of MAO-B activity of the platelets (%) as compared to the control, individual animal (MAO-B [4]; time 3 h): 97.77% and 92.52%
inhibition of MAO-B activity of the platelets (%) as compared to the control, group mean ±S.D. (n = 3) (MAO-B [4]; time 6 h): 92.73 ± 3.35%
inhibition of MAO-B activity of the platelets (%) as compared to the control, individual animal (MAO-B [4]; time 6 h): 86.04% and 96.51% and 95.63%
inhibition of MAO-B activity of the platelets (%) as compared to the control, group mean ±S.D. (n = 3) (MAO-B [4]; time 24 h): 100 ± 0.0%
inhibition of MAO-B activity of the platelets (%) as compared to the control, individual animal (MAO-B [4]; time 24 h): 100.00%
inhibition of MAO-B activity of the platelets (%) as compared to the control, group mean ±S.D. (n = 3) (MAO-B [4]; time 48 h): 74.36 ± 4.16%
inhibition of MAO-B activity of the platelets (%) as compared to the control, individual animal (MAO-B [4]; time 48 h): 82.67% and 70.48% and 69.93%

Values joined by “and” are separate entries in the source; they are usually repeats but may differ in a detail not shown here. Equal values may be shown once.
